Earlier results as cited in patent US20140128375A1, “B[…] AS CGRP RECEPTOR ANTAGONISTS” (priority 2006, published 2014).

Protein sequences, listed by entry. Tags and fused reporters are not part of them. Residues count along the entry.
UniProt Q63118, 24-464: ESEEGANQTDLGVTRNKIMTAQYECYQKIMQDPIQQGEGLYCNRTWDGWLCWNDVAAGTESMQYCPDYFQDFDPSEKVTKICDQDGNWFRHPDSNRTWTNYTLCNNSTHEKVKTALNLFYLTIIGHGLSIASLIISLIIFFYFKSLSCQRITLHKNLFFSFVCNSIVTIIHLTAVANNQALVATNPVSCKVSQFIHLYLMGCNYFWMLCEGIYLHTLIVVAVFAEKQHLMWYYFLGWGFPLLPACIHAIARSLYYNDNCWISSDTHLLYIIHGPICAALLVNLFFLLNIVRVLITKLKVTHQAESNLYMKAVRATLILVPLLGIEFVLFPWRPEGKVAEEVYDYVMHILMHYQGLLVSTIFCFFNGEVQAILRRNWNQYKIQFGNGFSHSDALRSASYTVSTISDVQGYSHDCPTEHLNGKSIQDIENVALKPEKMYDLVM
UniProt Q9JJ74, 27-148: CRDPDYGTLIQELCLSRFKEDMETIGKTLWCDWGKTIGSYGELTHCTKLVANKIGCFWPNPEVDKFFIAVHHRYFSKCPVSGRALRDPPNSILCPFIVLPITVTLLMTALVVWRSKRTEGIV

How the values were obtained:
CGRP [1] = molecular target: T1, CGRP (Rattus norvegicus, UniProt Q63118+Q9JJ74); conditions: trigeminal ganglion stimulation
T1 construct: host or cells: living rat (dural and facial vasculature)

CGRP [2] = molecular target: T1, CGRP; conditions: rats, electrical stimulation of the dura mater, prior administration

For CGRP(8-37), the “effect on increase of facial blood flow” value (CGRP [1]) is given as “inhibited” and the “effect on increase of middle meningeal artery diameter” value (CGRP [2]) is given as “blocked”.
